The results in this text go back to PubChem BioAssay AID2247 (Johns Hopkins Ion Channel Center, 2010).

Protein sequences, listed by entry. Tags and fused reporters are not part of them.
UniProt Q9QUQ5, whole entry: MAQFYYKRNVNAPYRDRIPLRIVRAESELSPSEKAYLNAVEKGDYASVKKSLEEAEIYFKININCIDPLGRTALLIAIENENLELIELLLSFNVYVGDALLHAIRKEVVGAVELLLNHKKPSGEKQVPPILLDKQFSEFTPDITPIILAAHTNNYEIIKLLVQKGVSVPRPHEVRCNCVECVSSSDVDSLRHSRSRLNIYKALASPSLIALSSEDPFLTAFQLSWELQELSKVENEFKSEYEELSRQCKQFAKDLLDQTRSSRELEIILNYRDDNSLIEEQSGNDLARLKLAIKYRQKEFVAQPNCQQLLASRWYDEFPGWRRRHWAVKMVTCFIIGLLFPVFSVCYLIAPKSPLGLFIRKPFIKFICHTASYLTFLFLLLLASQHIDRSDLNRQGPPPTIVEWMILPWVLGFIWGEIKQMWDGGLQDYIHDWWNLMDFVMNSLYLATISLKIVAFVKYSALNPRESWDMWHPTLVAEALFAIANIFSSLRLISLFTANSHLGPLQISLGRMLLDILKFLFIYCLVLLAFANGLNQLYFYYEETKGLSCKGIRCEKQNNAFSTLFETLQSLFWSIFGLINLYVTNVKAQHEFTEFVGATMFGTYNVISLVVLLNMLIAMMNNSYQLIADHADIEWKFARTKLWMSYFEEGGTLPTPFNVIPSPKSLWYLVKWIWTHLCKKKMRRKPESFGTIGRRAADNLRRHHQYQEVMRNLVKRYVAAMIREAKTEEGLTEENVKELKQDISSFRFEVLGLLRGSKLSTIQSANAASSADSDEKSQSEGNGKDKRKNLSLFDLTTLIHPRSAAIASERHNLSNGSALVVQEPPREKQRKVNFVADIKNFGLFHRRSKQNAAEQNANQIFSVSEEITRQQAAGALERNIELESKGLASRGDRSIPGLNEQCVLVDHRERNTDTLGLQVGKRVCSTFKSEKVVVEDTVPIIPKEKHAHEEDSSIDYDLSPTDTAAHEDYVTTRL

The list shows a part of the results, in another mix than the full data. Active and inactive are the calls of the source.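 How the source made its calls: active means B-score over 3 SD under the library average, no early fluorescence shift, positive overall ratio signal; inactive means the rest.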

The target of the experiment is Short transient receptor potential channel 4 (Mus musculus) (UniProt Q9QUQ5). The experiment is described as follows: blockers of DAMGO-evoked TRPC4 calcium flux – Fluo4 calcium, HEK293 TRPC4beta/mu-opioid cells, primary screen (AID 2247). As to conditions: at 10 µM. A general note: Calcium assays in cells follow changes in intracellular calcium, usually with a dye or a luminescent sensor.
Regarding `COc1ccc(OP(C)(=O)Nc2cccc(F)c2)cc1` (stereo unspecified), the outcome was inactive.
As for `O=[N+]([O-])c1cc([N+](=O)[O-])c(-c2ccn[nH]2)s1`, the entry is “inactive”; as for `CC(C)NC(=O)NP(=O)(Oc1ccccc1)Oc1ccccc1`, “inactive”; as for `COc1ccccc1OP(C)(=O)Nc1cc(Cl)ccc1C` (stereo unspecified), “inactive”.
Consider `CCN(CC)C(=S)SC(NC=O)C(Cl)(Cl)Cl` (stereo unspecified), for which the outcome was inactive.
As for `C[As](=O)(O)c1cccc(C(=O)O)c1`, the entry is “inactive”; as for `O=[As](O)(c1ccc(O)cc1)c1ccccc1O`, “inactive”.
On to `O=[N+]([O-])c1cc([N+](=O)[O-])c(Nc2cccnc2)c([N+](=O)[O-])c1`, for which the outcome was inactive.
Turning to `O=[N+]([O-])c1ccc2c(c1)C=Nc1ccccc1O2`, the result was inactive.
As for `Cc1ccc2nc3c(c(C)c2c1)CC(C(Cl)Cl)S3` (stereo unspecified), the entry is “inactive”; as for `Cc1cccc(C)c1OP(C)(N)=O` (stereo unspecified), “inactive”.
Regarding `Cc1ccc(OP(=O)(Nc2ccc([N+](=O)[O-])cn2)Oc2ccc(C)cc2)cc1`, the outcome was inactive.
As for `CC(C)(C)c1ccc(OP(C)(=O)Nc2ccc(SC(F)(F)F)cc2)cc1` (stereo unspecified), the outcome was inactive.
On to `COc1ccc(N/C(=N/P(=O)(N2CCOCC2)N2CCOCC2)N2CCOCC2)cc1`, for which the result was inactive.
As for `Cc1cc(=O)[nH]c(N[N+](=O)[O-])n1`, the entry is “inactive”; as for `CCN(CC)CCCOC(=O)C(O)(c1ccccc1)c1ccccc1`, “inactive”.
As for `O=C(OC1CN2CCC1CC2)C12CC3CC(CC(C3)C1)C2` (stereo unspecified), the entry is “inactive”; as for `Cc1c2c(nc3ccccc13)SC(C(Cl)Cl)C2` (stereo unspecified), “inactive”; as for `COc1cc(I)ccc1[As](=O)(O)O`, “inactive”.
As for `COc1ccc2nc(NP(=O)(c3ccccc3)c3ccccc3)sc2c1`, the entry is “inactive”; as for `O=[N+]([O-])c1cc([N+](=O)[O-])c(O)c([N+](=O)[O-])c1.c1ccc(Oc2ccncc2)cc1`, “inactive”.
In the case of `CCOC(=O)c1ccc(NC(=O)C(C)(CCl)SC)cc1` (stereo unspecified), the outcome was inactive.
For `CCOC(=O)c1ccc(NP(C)(=O)Oc2ccc(OC)cc2)cc1` (stereo unspecified), the result was inactive.
As for `CCOP(C)(=S)SCC(=O)NC(C)C(=O)O` (stereo unspecified), the entry is “inactive”.
As for `O=C(OC1CN2CCC1CC2)c1cccc([N+](=O)[O-])c1` (stereo unspecified), the entry is “inactive”; as for `CP(=O)(Nc1ccccn1)Oc1ccc(Cl)cc1` (stereo unspecified), “inactive”.
As for `CCC(C)N(CC(C)C)C(=S)SC(NC(C)=O)C(Cl)(Cl)Cl` (stereo unspecified), the entry is “inactive”; as for `CP(=O)(Oc1ccccc1)OC(c1ccccc1)C(F)(F)F` (stereo unspecified), “inactive”; as for `COP1(=S)c2c(C)nn(CCC#N)c2N=C(c2ccc(F)cc2)N1C` (stereo unspecified), “inactive”.
With `CP(=O)(Nc1ccc(SC(F)(F)F)cc1)Oc1ccc(Cl)cc1` (stereo unspecified), the result was inactive.
In the case of `Cc1cccc(C)c1OP(C)(=O)Nc1ccc(SC(F)(F)F)cc1` (stereo unspecified), the outcome was inactive.
As for `O=C(Nc1ccncc1[N+](=O)[O-])c1ccc([N+](=O)[O-])cc1[N+](=O)[O-]`, the entry is “inactive”; as for `Cc1cc(C)cc(OP(C)(=O)Nc2ccc(SC(F)(F)F)cc2)c1` (stereo unspecified), “inactive”.
As for `CP(=O)(NC(=O)Nc1ccccc1)Oc1ccccc1` (stereo unspecified), the entry is “inactive”.
As for `O=C(COc1ccccc1)OC1CN2CCC1CC2` (stereo unspecified), the entry is “inactive”; as for `CCc1ccc(OP(C)(=O)N2CCN(c3ccc([N+](=O)[O-])cc3)CC2)cc1` (stereo unspecified), “inactive”; as for `CCOC(=O)Nc1cccc([As](=O)(O)O)c1`, “inactive”.
`CP(=S)(Nn1cnnc1)Oc1ccccc1` (stereo unspecified): the outcome was inactive.
`O=[N+]([O-])c1ccc(Nc2ccc(Oc3ccc([N+](=O)[O-])cc3[N+](=O)[O-])cc2)c([N+](=O)[O-])c1`: the result was inactive.
As for `CP(=O)(Nc1ccccc1Br)Oc1ccccc1` (stereo unspecified), the entry is “inactive”; as for `COc1ccccc1OP(C)(=O)Nc1ccccc1` (stereo unspecified), “inactive”.
In the case of `Cc1cc(SC(NC=O)C(Cl)(Cl)Cl)ncn1` (stereo unspecified), the result was inactive.
In the case of `O=P(Nc1ccccn1)(c1cccc2ccccc12)c1cccc2ccccc12`, the result was inactive.
As for `CCOC(=O)Nc1ccc([As](=O)(O)O)c(O)c1`, the entry is “inactive”.
As for `Cc1cc(SC(NC(=O)c2ccccc2)C(Cl)(Cl)Cl)nc(C(C)C)n1` (stereo unspecified), the entry is “inactive”.
As for `CCCCOc1ccc(C(=O)NCC2(N3CCCCC3)CCCCC2)cc1OC`, the entry is “inactive”.
